Test results as given in patent publication EP4825844A1, “NAV1.8 INHIBITOR COMPOUND, SALT THEREOF, POLYMORPH THEREOF, AND USE THEREOF” (dated 2026).

Assays:
[1] = test system: Incisional Pain Model Rats; experiment: Rat incisional pain model, Von Frey mechanical pain threshold; conditions: before modeling and administration
From the text: Male SD rats weighing 200-250 g were anesthetized and fixed in a prone position. The plantar surface of the lateral hind paw was extended upward, and the toes were fixed with surgical tape, followed by disinfection. A longitudinal incision of approximately 1 cm was made in the skin and fascia using a scalpel, starting 0.5 cm from the heel towards the toes on the animal's plantar surface. After lifting the flexor digitorum brevis muscle with surgical curved forceps, a longitudinal incision was made in the belly of the muscle using a scalpel, without completely transecting the muscle. The skin was sutured and disinfected. On the second day after modeling, the animals were divided into different groups, with 8 animals per group, and were orally administered different compounds by gavage. The mechanical pain threshold of the animals was measured using Von Frey filaments at different time points after administration. […]
(§1) Mechanical pain threshold detection method: The test animal was continuously stimulated on the plantar surface of the hind paw to be tested with a Von-Frey filament until the filament bent, and the paw withdrawal response of the animal was observed. […] The first filament gram force that elicited 3 or more positive responses was recorded as the pain threshold for that animal (each animal was tested three times, and the average value was taken). […]

[2] = test system: Rats with Spinal Nerve Ligation; experiment: Rat spinal nerve ligation neuropathic pain model, Von-Frey mechanical pain threshold; conditions: before modeling and administration
From the text: Male SD rats weighing 180-220 g were anesthetized and placed in a prone position on the surgical table. An incision was made along the spine near the animal's hip bone to separate the fascia and muscle. The L5 transverse process was carefully bitten off with forceps, and the L5 nerve was separated using a glass dissecting needle. The L5 nerve was ligated with a 5-0 ligature. The muscle and skin were sutured, and the area was disinfected with iodophor. Fourteen days after modeling, the animals were divided into different groups (10 animals per group) and orally administered different compounds via gavage. The mechanical pain threshold of the animals was measured using Von-Frey filaments at different time points after administration. Specific dosing regimens and detection time points are detailed in Table B-3 below.
as §1, with “observed. The test animal was stimulated sequentially with filaments of increasing gram force, from the smallest to the largest.” for “observed.”

[3] = Solid state stability (XRPD and HPLC); conditions: for Purity (area%): HPLC; for Relative to starting (%): HPLC purity; for Crystal form: XRPD after storage, merged cell for 25 °C/60% RH/open 1 week, 40 °C/75% RH/open 1 week, 80 °C/sealed 1 day
Experimental: (§2) In the study, the purity test, dynamic solubility test, and stability test were performed using a Waters H-Class ultra performance liquid chromatography system, and the ionic salt molar ratio test was performed using ion chromatography. Table A-4. High performance liquid chromatography test conditions
Free crystal form A and the maleate salt crystal form A were placed at 80 °C/closed for one day and at 25 °C/60% RH and 40 °C/75% RH/open for one week, respectively. The physical and chemical stability of the samples were tested by XRPD and HPLC. […] Table2-6 Summary of Solid State Stability Evaluation

[4] = Hygroscopicity by dynamic vapor sorption (DVS); conditions: for moisture adsorption: 25 °C/80% RH
Experimental: Dynamic vapor sorption (DVS) curves were acquired on a DVS IntrInsic from Surface Measurement Systems (SMS). The relative humidity at 25 °C was corrected with the deliquescence points of LiCl, Mg(NO3)2, and KCl. Table A-3. DVS test parameters
Hygroscopicity evaluation of free crystal form A and crystal form A of maleate was performed using a dynamic vapor sorption (DVS) instrument. The percentage changes in mass of the samples when the humidity changed (0% RH to 95% RH) at a constant temperature of 25 °C were collected.

[5] = Dynamic solubility at 37 °C in H2O, SGF, FaSSIF and FeSSIF; conditions: for S: solubility: feeding concentration 10 mg/mL
Experimental: as §2
100 mg of NaCl and 50 mg of Triton X-100 were weighed into a 50 mL volumetric flask and then completely dissolved by addition of purified water. 816 µL of 1 M hydrochloric acid was added, and the pH was adjusted to 1.8 with 1 M hydrochloric acid or 1 M NaOH solution. The mixed solution was brought to the volume by addition of purified water.
340 mg of anhydrous NaH2PO4 and 620 mg of NaCl were weighed and added into a 100 mL volumetric flask, and then completely dissolved by addition of purified water. 55.44 µL of a 50% NaOH solution was then added, and the pH was adjusted to 6.5 with 1 M hydrochloric acid or 1 M NaOH solution. The mixed solution was brought to the volume by addition of purified water. Subsequently, 110 mg of SIF powder was weighed and added into a 50 mL volumetric flask and completely dissolved in the solution described above, and the mixed solution was brought to the volume.
0.82 mL of glacial acetic acid and 1.18 g of NaCl were added to a 100 mL volumetric flask and completely dissolved by addition of purified water. 528 µL of a 50% NaOH solution was then added, the pH was adjusted to 5.0 with 1 M hydrochloric acid or 1 M NaOH solution, and the mixed solution was brought to the volume by addition of purified water. Subsequently, 560 mg of SIF powder was weighed into a 50 mL volumetric flask and completely dissolved in the solution described above, and the mixed solution was brought to the volume.
Solids at a feeding concentration of 10 mg/mL (calculated based on free crystal form) were rotationally mixed with corresponding vehicles at 37 °C. The solubility of each sample in H2O, SGF, FaSSIF, and FeSSIF was determined at different time points (1 h, 2 h, 4 h, and 24 h). After sampling at each time point, the samples were centrifuged (at 10000 rpm) and filtered (through 0.45 µm PTFE), the HPLC concentrations and pH values of the filtrates were determined, and the centrifuged solid samples were subjected to XRPD analysis. […] Table 2-5. Summary of dynamic solubility test results at 37 °C

SMILES: CC(C)C[C@H](CN)CC(=O)O
- Mechanical Pain Threshold (Mean±SD) Baseline Before Modeling ([1]; 30mpk group): 12.7 ± 1.7 g
- Mechanical Pain Threshold (Mean±SD) Baseline Before Modeling ([2]; 30mpk group): 13.6 ± 2.7 g

SMILES: O=C(Nc1cnc[n+]([O-])c1)c1cc(Cl)c(Cl)cc1Oc1ccc(OC(F)(F)F)cc1
- Mechanical Pain Threshold (Mean±SD) Baseline Before Modeling ([1]; 100mpk group): 12.6 ± 1.7 g
- Mechanical Pain Threshold (Mean±SD) Baseline Before Modeling ([2]; 100mpk group): 13.6 ± 1.7 g

SMILES: O=C(Nc1cnc[n+]([O-])c1)c1cc(Cl)c(Cl)cc1Oc1ccc(OC(F)(F)F)cc1 [Crystal form A of maleate]
- Purity (area%) ([3]; 25 °C/60% RH/open, 1 week): 99.90 area%
- Relative to starting (%) ([3]; 25 °C/60% RH/open, 1 week): 100.0%
- Purity (area%) ([3]; 40 °C/75% RH/open, 1 week): 99.95 area%
- Relative to starting (%) ([3]; 40 °C/75% RH/open, 1 week): 100.0%
- Purity (area%) ([3]; 80 °C/sealed, 1 day): 99.93 area%
- Relative to starting (%) ([3]; 80 °C/sealed, 1 day): 100.0%
- Crystal form [3]: C rystal form A of maleate
- moisture adsorption [4]: 0.224%

SMILES: O=C(Nc1cnc[n+]([O-])c1)c1cc(Cl)c(Cl)cc1Oc1ccc(OC(F)(F)F)cc1 [Free Crystal Form A]
- Purity (area%) ([3]; 25 °C/60% RH/open, 1 week): 99.35 area%
- Relative to starting (%) ([3]; 25 °C/60% RH/open, 1 week): 100.0%
- Purity (area%) ([3]; 40 °C/75% RH/open, 1 week): 99.37 area%
- Relative to starting (%) ([3]; 40 °C/75% RH/open, 1 week): 100.0%
- Purity (area%) ([3]; 80 °C/sealed, 1 day): 99.45 area%
- Relative to starting (%) ([3]; 80 °C/sealed, 1 day): 100.1%
- Crystal form [3]: Free Crystal Form A
- hygroscopicity ([4]; 25 °C, 0% RH to 95% RH): almost no hygroscopicity
- moisture adsorption [4]: 0.1698%
- S: solubility ([5]; FaSSIF, 1 h): 13 µg/mL
- S: solubility ([5]; FaSSIF, 2 h): 14 µg/mL
- S: solubility ([5]; FaSSIF, 4 h): 15 µg/mL
- S: solubility ([5]; FaSSIF, 24 h): 15 µg/mL
- S: solubility ([5]; FeSSIF, 1 h): 51 µg/mL
- S: solubility ([5]; FeSSIF, 2 h): 53 µg/mL
- S: solubility ([5]; FeSSIF, 4 h): 55 µg/mL
- S: solubility ([5]; FeSSIF, 24 h): 59 µg/mL
- S: solubility ([5]; H2O, 1 h): 2 µg/mL
- S: solubility ([5]; H2O, 2 h): 1 µg/mL
- S: solubility ([5]; H2O, 4 h): 2 µg/mL
- S: solubility ([5]; H2O, 24 h): 2 µg/mL
- S: solubility ([5]; SGF, 1 h): 12 µg/mL
- S: solubility ([5]; SGF, 2 h): 12 µg/mL
- S: solubility ([5]; SGF, 4 h): 13 µg/mL
- S: solubility ([5]; SGF, 24 h): 13 µg/mL
- crystal form after the dynamic solubility test ([5]; XRPD of centrifuged solids, H2O, SGF, FaSSIF, FeSSIF): remained unchanged

Counter-ions that a name gives are not always drawn.
